Results taken from patent US7879571B2, “Population based assessments and means to rank the relative immunogenicity of proteins” (Danisco US Inc., priority 2003, dated 2011).

System: CD4+ T-cells
Assay: I-MUNE assay: CD4+ T-cell proliferation with dendritic cells and 15-mer peptides offset by 3 amino acids, community donors
Conditions: for Epitopes identified (in words): negative control, 87 community donors

Substance	Structure value in words	Epitopes identified (in words) (listed as human β2-microglobulin)	Epitopes identified (in words) (listed as human β-2 microglobulin)	Epitopes identified (in words) (listed as β2-microglobulin)	Epitopes identified (in words) (listed as β-2 microglobulin)	Background +/- sd (Table 5)
B2-microglobulin: human β2-microglobulin, negative control [reference compound]	low	did not identify any epitopes	no epitopes were found	None of the peptide responses were significant	no prominent epitope responses were found	–
hIFN-B: human interferon-beta	comparatively high	–	–	–	–	3.17 +/− 3.28
